Tests used:
[1] = Gamma imaging (animal SPECT) of nude mouse injected with [Tc-99m]Tc-ICG-HSA and [Tc-99m]Tc-ICG-MAA; type: in vivo; conditions: 1 mCi/50 μl into buttock
Procedure: 1 mCi/50 μl of the constructed complex ([Tc-99m]Tc-ICG-HSA) was injected into a right buttock of a nude mouse, and 1 mCi/50 μl of the complex constructed in Example 4-1 ([Tc-99m]Tc-ICG-MAA) was injected into a left buttock of the nude mouse. Then, a gamma image of the nude mouse was taken by using an animal SPECT device (NanoSPECT, Bioscan) at immediately after injection (0 h) and 20 hours after injection (20 h) (FIG. 11). FIG. 11 is an image showing changes in fluorescent signals with the lapse of time for each labeling agent in the mice respectively administered with [Tc-99m]Tc-ICG-MAA and [Tc-99m]Tc-ICG-HSA which are labeling agent for a cancer lesion.

[2] = Near-infrared fluorescent signal of ICG measured by Safire II fluorescent device; type: physicochemical
Procedure: To investigate whether the constructed complex was normally labeled with Tc-99m, the complex was applied on instant thin layer chromatography (ITLC) and developed by using acetone as a solvent (FIG. 10). FIG. 10 is a graph showing a labeling rate of the complex in which MAA was bound to Tc-99m. […] In addition, a near-infrared fluorescent signal of ICG was measured by using Safire II fluorescent device (RFU 7,612).

[3] = Signal intensity of near-infrared fluorescence of ICG-MAA complexes at various ICG and MAA mixing ratios; type: physicochemical
[4] = In vivo stability of near-infrared fluorescence of ICG-bound complexes injected into thigh of nude mice (Xenogen Lumina); conditions: 50 μl into thigh
Procedure: 50 μl of four complexes constructed in Example 3-2 were respectively injected into thigh of nude mice. Then, changes in near-infrared fluorescent signals generated in each nude mouse were measured by using Xenogen Lumina device for 3 weeks (FIG. 6). FIG. 6 is an image showing changes with the lapse of time in intensity of near-infrared fluorescent signals of ICG-HSA, ICG-MAA, ICG-MAA-fibrin and ICG-glycol chitosan complexes injected into the nude mice.

[5] = Diffusion level in mouse with lapse of time (subcutaneous injection, Xenogen Lumina); type: in vivo; conditions: nude mouse, point of injection vs two days after injection
From the text: To investigate whether the results from Examples may be applied in vivo, a nude mouse was subcutaneously injected with the ICG-MAA-fibrin complex or ICG-MAA complex. […] FIG. 9 is an image showing diffusion levels of the ICG-MAA-fibrin complex and ICG-MAA complex injected into the nude mice with the lapse of time.

[6] = Gamma imaging (animal SPECT) of nude mouse injected with [Tc-99m]Tc-MAA; type: in vivo; conditions: 1 mCi/50 μl into left buttock, immediately after (0 h) and 20 hours after (20 h) injection
Procedure: In addition, to investigate whether the constructed complex may be used as an in vivo labeling agent, an experiment was performed as follows: the constructed [Tc-99m]Tc-MAA 1 mCi/50 μl was injected into a left buttock of a nude mouse. A gamma image of the nude mouse was taken by using an animal SPECT device (NanoSPECT, Bioscan) at immediately after injection (0 h) and 20 hours after injection (20 h) (FIG. 3). FIG. 3 is a gamma image showing whether [Tc-99m]Tc-MAA is changed or not with the lapse of time in the nude mouse injected with [Tc-99m]Tc-MAA.

[7] = 20 hours after injection (20 h)
[8] = immediately after injection (0 h)

[Tc-99m]Tc-ICG-HSA: human serum albumin labeled with ICG and Tc-99m, a typical labeling agent for a cancer lesion [reference compound]
Location of the complex (gamma image) [1, 7]: diffused into adjacent tissues so that the fluorescent signal became weaker
Location of the complex (gamma image) [1, 8]: remained only in the injected lesion

[Tc-99m]Tc-ICG-MAA: complex in which MAA was labeled with ICG and radioactive isotope Tc-99m
Near-infrared fluorescent signal of ICG [2]: 7,612 RFU
Location of the complex (gamma image) [1, 7]: continued to persistently remain in the injected lesion
Location of the complex (gamma image) [1, 8]: remained only in the injected lesion

ICG-MAA: complex in which macroaggregated albumin (MAA) is bound to indocyanine green
Signal intensity of near-infrared fluorescence ([3]; ICG 6.5 μM, MAA 11.5 mg/ml): 979
Signal intensity of near-infrared fluorescence ([3]; ICG 9.0 μM, MAA 11.5 mg/ml): 942
Signal intensity of near-infrared fluorescence ([3]; ICG 12.9 μM, MAA 11.5 mg/ml): 915
Signal intensity of near-infrared fluorescence ([3]; ICG 25.8 μM, MAA 11.5 mg/ml): 563
Signal intensity of near-infrared fluorescence ([3]; ICG 38.7 μM, MAA 11.5 mg/ml): 366
Signal intensity of near-infrared fluorescence ([3]; ICG 64.5 μM, MAA 11.5 mg/ml): 244
Signal intensity of near-infrared fluorescence ([3]; ICG 64.5 μM, MAA […]): 75
Signal intensity of near-infrared fluorescence ([3]; ICG 77.4 μM, MAA 11.5 mg/ml): 182
Signal intensity of near-infrared fluorescence ([3]; ICG 103 μM, MAA 11.5 mg/ml): 94
Signal intensity of near-infrared fluorescence ([3]; ICG 103 μM, MAA […]): 39
Signal intensity of near-infrared fluorescence ([3]; ICG 258 μM, MAA 11.5 mg/ml): 60
Signal intensity of near-infrared fluorescence ([3]; ICG 258 μM, MAA […]): 30
Signal intensity of near-infrared fluorescence ([3]; ICG 516 μM, MAA 11.5 mg/ml): 20
Signal intensity of near-infrared fluorescence ([3]; ICG 516 μM, MAA […]): 2
Signal intensity of near-infrared fluorescence ([3]; ICG 774 μM, MAA 11.5 mg/ml): 9
Signal intensity of near-infrared fluorescence ([3]; ICG 1032 μM, MAA 11.5 mg/ml): 4
Signal intensity of near-infrared fluorescence ([3]; ICG […], MAA 11.5 mg/ml): 931
Near-infrared fluorescent signal ([4]; after three weeks): remained at a certain level
Size of region exhibiting near-infrared fluorescent signal (diffusion level) [5]: increased with the lapse of time

ICG-HSA: 65 μM of ICG added and reacted to human serum albumin (HSA)
Near-infrared fluorescent signal ([4]; after one week): rapidly reduced
Near-infrared fluorescent signal ([4]; after three weeks): almost no near-infrared fluorescent signal was detected

[Tc-99m]Tc-MAA: radioactive isotope-bound MAA complex from thiol MAA and [Tc-99m]TcO4−
Persistence of the complex in the injected lesion (gamma image) [6]: continued to persistently remain in the injected lesion

From patent US10166302B2, “Labeling composition for cancer lesion” (NATIONAL CANCER CENTER, priority 2012, dated 2019)
